The text below walks through data of patent publication US9102591B2, “Benzamides” (H. Lundbeck A/S, priority 2012, dated 2015).

Sequences of proteins named here, by UniProt entry; tags and fusion partners are left off. A change or cut given only in a name is not applied to a line headed by its entry.
UniProt Q99572: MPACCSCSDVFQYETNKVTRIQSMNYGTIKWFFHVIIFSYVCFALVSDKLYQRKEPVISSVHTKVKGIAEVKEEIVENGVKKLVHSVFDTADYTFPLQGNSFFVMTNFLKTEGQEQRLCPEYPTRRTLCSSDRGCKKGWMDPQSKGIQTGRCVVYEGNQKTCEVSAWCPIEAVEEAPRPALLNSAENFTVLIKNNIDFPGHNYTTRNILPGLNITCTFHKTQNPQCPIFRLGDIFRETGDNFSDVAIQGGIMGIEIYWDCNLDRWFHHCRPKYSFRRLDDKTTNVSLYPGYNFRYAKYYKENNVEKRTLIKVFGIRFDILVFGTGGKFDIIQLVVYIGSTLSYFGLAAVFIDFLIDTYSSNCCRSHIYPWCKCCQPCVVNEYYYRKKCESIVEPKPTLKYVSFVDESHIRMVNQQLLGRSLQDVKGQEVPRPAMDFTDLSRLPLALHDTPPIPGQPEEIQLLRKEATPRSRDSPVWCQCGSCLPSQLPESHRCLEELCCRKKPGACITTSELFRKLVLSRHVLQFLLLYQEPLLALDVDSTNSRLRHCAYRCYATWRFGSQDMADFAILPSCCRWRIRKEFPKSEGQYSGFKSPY

For this assay, the target named is P2X7 receptor (Homo sapiens (Human), UniProt Q99572). Nature of the assay: P2X7 FLIPR assay (BzATP-stimulated calcium fluorescence, antagonist IC50). Format: cell-based. How it is done: This example illustrates representative assays for use in evaluating the test compounds for antagonist activity. Compounds of the present invention were tested in vitro for their ability to act as antagonists to the P2X7receptor. […]
Cells were plated to cell density of approximately 15,000 cells/well in 384-well assay plates (50 μl/well) with 1.5% low serum media (DMEM, 1.5% FBS, 1% L-glut (2 mM), 10 mM HUES, 1% P/S). Cells were plated 24 hours prior to assay. Cells expressing human, rat or mouse P2X7 receptor were assayed in the following manner.
Fluo-4 NW dye mix (Molecular Probes, Inc., Eugene, Oreg., USA) was prepared in buffer (see manufacturer's instructions). Cell plates were removed from the 37° C. incubator, the media discarded and then 30 μL of dye was added to each well. Plates were placed in the 37° C., non-CO2 incubator for 30 minutes and then room temperature for 30 minutes.
Compound mixtures (A) were added to assay plates containing cells and placed at room temperature for 30 minutes, then BzATP (B) was added. Fluorescence was read using the Tetra FLIPR® (Molecular Devices, Inc., Sunnyvale, Calif., USA) and IC50 values were calculated by standard methods to determine antagonist activity.

As usually defined, the IC50 is the midpoint of a concentration-inhibition curve.

With `Cc1ncc(C(CNC(=O)c2cccc(Cl)c2Cl)CC2CC2)cn1` (single isomer, unassigned; (+)) [Example 4y, (+)-2,3-dichloro-N-(3-cyclopropyl-2-(2-methylpyrimidin-5-yl)propyl)benzamide], the IC50 was found to be 260 nM. Next, `Cc1ncc(C(CNC(=O)c2cccc(Cl)c2Cl)CC2CC2)cn1` (centres unmarked) [2,3-dichloro-N-[3-cyclopropyl-2-(2-methylpyrimidin-5-yl)propyl]benzamide]: 60 nM.
